These results are taken from patent US20240082212A1, “USE OF MDMA FOR TREATMENT OF STRESS-RELATED DISORDERS” (priority 2022, published 2024).

Sequences of proteins named here, by UniProt entry; tags and fusion partners are left off. Residues count along the entry.
UniProt P28335, 33-458: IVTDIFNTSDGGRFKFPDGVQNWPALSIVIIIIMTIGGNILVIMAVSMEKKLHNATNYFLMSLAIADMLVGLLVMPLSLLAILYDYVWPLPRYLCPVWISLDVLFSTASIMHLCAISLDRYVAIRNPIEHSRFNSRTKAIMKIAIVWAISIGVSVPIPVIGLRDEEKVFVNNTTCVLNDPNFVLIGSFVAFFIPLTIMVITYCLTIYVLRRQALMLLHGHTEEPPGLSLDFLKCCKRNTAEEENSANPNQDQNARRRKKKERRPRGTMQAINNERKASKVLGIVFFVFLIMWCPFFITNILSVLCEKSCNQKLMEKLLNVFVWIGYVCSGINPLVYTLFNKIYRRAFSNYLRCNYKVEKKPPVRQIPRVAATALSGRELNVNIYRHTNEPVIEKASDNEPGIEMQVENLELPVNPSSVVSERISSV

This experiment concerns the target Serotonin 5-HT2C (Homo sapiens, UniProt P28335). In words: biochemical. It counts as binding.

For `CNC(C)Cc1ccc2c(c1)OCO2` (single isomer, unassigned) [R-MDMA, R(−)-3,4-methylenedioxymethamphetamine], inhibition was half-maximal at 2600 nM (IC50) and affinity was put at a Ki of 1360 nM.
